# Values quoted from earlier work as cited in patent publication US8158153B2, “Nanoparticulate bisphosphonate compositions” (Alkermes Pharma Ireland Limited, priority 2005, dated 2012).
# Conditions: patients; clinical use
structure (smiles),measurement,value
"NCCCC(O)(P(=O)([O-])O)P(=O)(O)O.O.O.O.[Na+] [Alendronate sodium, (4-amino-1-hydroxybutylidene) bisphosphonic acid monosodium salt trihydrate]",side effects / adverse effects,esophagitis and/or esophageal ulcers
